PMC10229639

Key:
[1] = target: myosin Va S1 (WT), single-headed construct of chicken myosin Va (residues 1-792) (chicken | not stated) (UniProt Q02440); assay: three-bead laser trap assay (mini-ensemble); 30 mM Pi; myosin Va S1 (10 ug/mL) held on nitrocellulose-coated pedestals through c-Myc antibody, actin filament stretched between two trapped beads; trap stiffness 0.04, 0.06 and 0.10 pN/nm; KCl reduced to keep ionic strength 125 mM, 100 uM ATP, 25 C, pH 7.0
[2] = target: myosin Va S1 S217A, single-headed construct of chicken myosin Va (residues 1-792) with a mutation in switch I (chicken | not stated) (UniProt Q02440); assay: as above
[3] = target: myosin Va S1 (WT), single-headed construct of chicken myosin Va (residues 1-792) (chicken | not stated) (UniProt Q02440); assay: three-bead laser trap assay (mini-ensemble); no added Pi; myosin Va S1 (10 ug/mL) held on nitrocellulose-coated pedestals through c-Myc antibody, actin filament stretched between two trapped beads; trap stiffness 0.04, 0.06 and 0.10 pN/nm; 91 mM KCl, 1 mM EGTA, 4 mM MgCl2, 1 mM DTT, 100 uM ATP, 25 C, pH 7.0; about 4-5 myosin heads in reach of the filament
[4] = target: myosin Va S1 S217A, single-headed construct of chicken myosin Va (residues 1-792) with a mutation in switch I (chicken | not stated) (UniProt Q02440); assay: as above

binding event lifetime at 0.10 pN/nm with 30 mM Pi, percent of control (0.04 pN/nm, 0 mM Pi) (% of the control value) [1]: < 50 | further reduction of binding event lifetime at 0.06 against 0.04 pN/nm, 30 mM Pi [1]: 15% | ko (detachment rate from actin without load, Bell-bond fit), 30 mM Pi [1]: 13.7 s⁻¹ | rate of Pi-induced detachment from actin at a 4 pN load (Bell-bond fit), 30 mM Pi [1]: 10 s^−1 | rate of Pi-induced detachment from actin without load (Bell-bond fit), 30 mM Pi [1]: 5 s⁻¹ | reduction of average binding event lifetime with 30 mM Pi against 0 mM Pi (0.04 pN/nm) [1]: 25% | further reduction of binding event lifetime at 0.10 against 0.06 pN/nm, 30 mM Pi [2]: 35% | ko (detachment rate from actin without load, Bell-bond fit), 30 mM Pi [2]: 2.5 s⁻¹ | rate of Pi-induced detachment from actin without load (Bell-bond fit), 30 mM Pi [2]: 1.4 s⁻¹ | reduction of mean binding event lifetime at 0.06 against 0.04 pN/nm, 30 mM Pi [2]: 23% | increase of binding event lifetime at 0.1 against 0.04 pN/nm, 0 mM Pi [3]: 50% | ko (detachment rate from actin without load, Bell-bond fit), 0 mM Pi [3]: 16.8 s⁻¹ | ko (detachment rate from actin without load, Bell-bond fit), 0 mM Pi [4]: 11.1 s⁻¹
Substance: actin filament (actin isolated from chicken skeletal muscle) (from UniProt P68139 1-377) (natural protein)
